Assay outcomes as filed in PubChem BioAssay.
Compounds with a hit are over-represented: about 0.51% of the library has one in this group of screens.
Rango release inh – inhibitors of RanGTP-induced Rango-importin beta complex dissociation; Biochemical FRET Rango-importin beta, RanGTP-induced dissociation; Potency, µM (doses to about 46.1 µM), for inactives: top-dose activity change, negative = inhibition; hit rate 0.071% among 340,000; O95149+P62826; also: potency is read from the fitted curve at half-maximal effect; % of control where 0% means no effect; nearly all actives have a fitted effect of over 45% in size
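Compounds preincubate 5 min with complex of recombinant Rango and importin beta in PBS with 1 mM DTT. Ran (0.6 uM) loaded with 2 mM GTP plus 0.2 uM RCC1 starts dissociation; FRET is recorded 45 min later.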
Mm-Cpn inhibitor – inhibitors of Methanococcus maripaludis chaperonin TRiC (MmCpn). purified Mm-Cpn ATPase, ADP Transcreener TR-FRET. Potency, µM (doses to about 76.9 µM), inactives show top-dose activity, negative = inhibition, actives largely listed as inhibitors. hit rate 0.031% among 330,000; active = well fitted curve in the direction sought with a large enough effect; inconclusive = small, poorly fitted or top-dose-only effect, or another doubt; inactive = no such curve, though single readings can be large; an effect the other way counts as inactive or inconclusive; also: potency is read from the fitted curve at half-maximal effect; % is scaled to controls: 0 for no effect and ±100 for the full control effect; nearly all actives have a fitted effect of over 80% in size
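ATPase read-out: TR-FRET ADP immunoassay (anti-ADP Eu cryptate vs ADP-d2), ex 320 nm, em 590/665 nm; signal drops as ADP forms. Enzyme 25 nM, ATP 10 uM, 30 min at 37°C after 10 min compound preincubation.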
Rango complex inh – inhibitors of Rango-importin beta complex formation; Potency, µM (titrated, usually from 92.2 µM), inactives show at the highest dose inhibition of complex formation; AID 540263; hit rate 0.031% among 340,000; Rango CFP/YFP FRET sensor + importin beta, 45 min;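 also: potency is read from the fitted curve at half-maximal effect; 0% = DMSO wells and 100% = buffer wells lacking importin beta; nearly all actives have a fitted effect of over 15% in size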
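FRET biosensor (snurportin 1 IBB flanked by EYFP and cerulean), 50 nM, with compound 5 min, then 0.125 microM importin beta in PBS, 1 mM DTT, 0.02% Tween-20, 0.1% BSA. CFP/YFP ratio read after 45 min at room temperature; pre-read flags interference.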
CCT chaperon mod – cytosolic chaperonin activity modulation | hit rate 0.3% among 360,000 | activity change, % (no concentration beside the values), hits read low | purified chaperonin ATPase assay, HTRF ADP detection, 30 min | AID 651819; in the data active = activity change below about -30%; also: % is scaled to controls: 0 for no effect and ±100 for the full control effect
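First, chaperonin was dispensed at 40 nM or 20 nM final depending on batch activity. Next, compounds were pinned at 76 uM and ATP added at 10 uM. After 30 min at 37 °C, ADP detection reagents ran 30 min at ambient temperature.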
Integrin act MD – activators of alpha7 integrin expression for muscular dystrophy. hit rate 0.064% among 350,000. alpha7betagal myoblasts, beta-gal FDG fluorescence, 48 h. Potency, µM (top dose mostly 38.3 µM), without a hit: at the top dose activation, hits mostly activators; active = well fitted curve in the direction sought with a large enough effect; inconclusive = small, poorly fitted or top-dose-only effect, or another doubt; inactive = no such curve, though single readings can be large; an effect the other way counts as inactive or inconclusive;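 also: potency is read from the fitted curve at half-maximal effect; 100% = response of the positive control SU9516; nearly all actives have a fitted effect of over 60% in size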
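Alpha7betagal+/- myoblasts (passage 13) were plated 16-24 hr, then exposed to compounds (1:260 dilution of DMSO stock) for 48 hours at 37C. After MPER lysis, β-galactosidase reporter activity was read as FDG fluorescence (ex 480/em 540) after 30 minutes.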
* hit, by the source's call; ? = inconclusive; . = no result; [ ] = another dose, or the depositor's remark. Unless noted, calls follow the shape of the full dose curve.

SMILES | Rango release inh | Mm-Cpn inhibitor | Rango complex inh | CCT chaperon mod | Integrin act MD
COc1cc(OC)c(OC)cc1/C=N/Nc1nc2ccccc2[nH]1 | 12.1% | -4.5% | -0.2% | -2.7 | 19.5%
CCN(CC)c1ccc(/C=N/Nc2nc3ccccc3[nH]2)c(O)c1 | ? | -3.0% | ? | -31.0* | -63.7%
COc1ccc(C(=O)O/N=C(\N)c2cccc(C)c2)cc1OC | -19.9% | 2.9% | -0.5% | 0.1 | 10µM*
CN(C)CCCN(C(=O)COc1ccc(Cl)cc1)c1nc2cc3c(cc2s1)OCO3 | 2.7% | 1.1% | 0.1% | -35.1* | ?
O=C(COc1ccc(Cl)cc1)Nc1nc(-c2ccc(S(=O)(=O)N3CCOCC3)cc2)cs1 | -7.8% | 44.7µM* | 0.2% | -0.7 | 16.6%
O=C(Nc1nc(-c2ccc(S(=O)(=O)N3CCCCCC3)cc2)cs1)c1ccccc1 | -1.8% | 35.5µM* | -2.8% | 3.1 | 10.1%
CCOc1cccc2cc(-c3nc4ccc(C(=O)O)cc4[nH]3)c(=O)oc12 | . | -2.3% | . | . | .
O=C(Nc1ccccc1)C1=C(c2ccccc2)S(=O)(=O)CCS1(=O)=O | -7.8% | -4.9% | 6.7% | -55.0* | -65.2%
CCc1nc2ccc(C(=O)N3CCN(c4ccccc4)CC3)cn2c1N(C)CCCc1ccccc1 | . | . | . | -4.1 | .
N#C/C(=C\c1ccc(Sc2nc3ccccc3[nH]2)o1)c1ccccc1 | 0.8% | -1.8% | ? | 0.2 | -23.6%
N#Cc1ccc(Sc2nc3ccccc3[nH]2)cc1C#N | -5.0% | 1.3% | 3.6% | -0.5 | 10µM*
COCCCn1c(=O)cc(C)[nH]c1=S | -8.9% | 0.9% | -0.6% | -38.9* | 7.2%
CCCCNC(=O)C1c2ccccc2OCC(=O)N1C1CC1 (stereo not drawn) | . | . | . | -1.8 | .
O=C(NNC(=S)Nc1ccccc1)c1cccs1 | 1.4% | 0.3% | -4.8% | -4.0 | 3.7%
O=C(NNC(=S)Nc1ccc(Cl)cc1)c1cccs1 | 2.2% | -2.1% | 13.2% | -70.6* | ?
CC(C)C[C@@H]1O[C@H](CCc2ccccc2)Cc2[nH]c(=S)[nH]c(=O)c21 | . | . | . | 1.6 | .
Fc1cccc(CSc2ccc3nnc(-c4cccnc4)n3n2)c1 | 13.9% | -0.6% | 5.4% | -30.3* | -4.4%
Cc1ccc(CSc2ccc3nnc(-c4cccnc4)n3n2)cc1 | -3.7% | -1.5% | -0.7% | 2.4 | -8.8%
O=C(NC1CCCCC1)C(c1ccncc1)N(C(=O)c1ccco1)c1ccc(F)cc1 (stereo not drawn) | -5.9% | -0.1% | 0.3% | 0.0 | 10.6%
O=C(NC1CCCC1)C(c1ccncc1)N(C(=O)c1ccco1)c1ccc(F)c(Cl)c1 (stereo not drawn) | 4.7% | 2.2% | 0.4% | -36.5* | -10.7%
CC1=C(C(=O)N(C(C)C)C(C)C)CC(CC(=O)NCCCCc2ccccc2)C(=O)N1Cc1ccc(C(C)(C)C)cc1 (stereo not drawn) | . | . | . | -1.3 | .
COc1ccc(/C=C(\NC(=O)c2ccc(OC)cc2)C(=O)Nc2ccc(C(=O)O)cc2)cc1 | -0.6% | -0.2% | 2.5% | -1.8 | 13.5%
COc1ccc(/C=C(\NC(=O)c2ccc(C)cc2)C(=O)Nc2ccc(C(=O)O)cc2)cc1 | 0.3% | 0.9% | 7.0% | -0.8 | 11.2µM*
Cc1cc(Nc2ccccc2)nc2cc(O)ccc12 | 7.31µM* | -0.8% | ? | 1.1 | -3.1%
COc1ccc(Nc2cc(C)c3ccc(O)cc3n2)cc1 | -13.4% | -0.6% | ? | 2.1 | 0.0%
COc1ccc([C@]23Cc4ccccc4C(O2)C2=C(O3)C(=O)c3ccccc3C2=O)cc1 | . | -0.2%[15.4 µM] | . | . | .
N#C/C(=C\c1ccc[nH]1)C(=O)Nc1ccccc1Cl | 1.1% | -0.1% | 16.4µM* | -0.1 | -34.4%
N#C/C(=C\c1ccc[nH]1)C(=O)Nc1ccccc1F | 6.4% | -2.2% | -0.7% | -4.6 | 0.0%
CN(C)c1ccc(-c2[nH][nH]c(=O)c2NC(=O)c2ccccn2)cc1 | . | . | . | -35.5* | .
Cc1ccc(-c2nnn(CC(=O)N(CCN3CCOCC3)C(C(=O)NC(C)(C)C)c3ccc(C)o3)n2)cc1 (stereo not drawn) | -1.0% | -0.3% | -0.4% | 0.9 | -10.1%

Entries of single compounds, quoted from the list. Order of values: Rango release inh	Mm-Cpn inhibitor	Rango complex inh	CCT chaperon mod	Integrin act MD
N#Cc1ccc(Sc2nc3ccccc3[nH]2)cc1C#N is entered as -5.0%	1.3%	3.6%	-0.5	10µM*
O=C(NC1CCCCC1)C(c1ccncc1)N(C(=O)c1ccco1)c1ccc(F)cc1 (stereo not drawn) is entered as -5.9%	-0.1%	0.3%	0.0	10.6%
COc1ccc(C(=O)O/N=C(\N)c2cccc(C)c2)cc1OC is entered as -19.9%	2.9%	-0.5%	0.1	10µM*
COc1ccc([C@]23Cc4ccccc4C(O2)C2=C(O3)C(=O)c3ccccc3C2=O)cc1 is entered as .	-0.2%[15.4 µM]	.	.	.
CC1=C(C(=O)N(C(C)C)C(C)C)CC(CC(=O)NCCCCc2ccccc2)C(=O)N1Cc1ccc(C(C)(C)C)cc1 (stereo not drawn) is entered as .	.	.	-1.3	.

(next part)
SMILES | Rango release inh | Mm-Cpn inhibitor | Rango complex inh | CCT chaperon mod | Integrin act MD
Cc1ccc(-c2nnn(CC(=O)N(CCN3CCOCC3)C(C(=O)NC(C)(C)C)c3ccco3)n2)cc1 (stereo not drawn) | 28.4% | -1.6% | 4.9% | -63.3* | -36.7%
Cc1ccc(-c2csc(C(O)c3ccccc3)n2)cc1C (stereo not drawn) | . | . | . | 0.1 | .
c1coc(CN(Cc2cccs2)Cc2nnnn2C2CCCCC2)c1 | 13.7% | 0.1% | -0.3% | 3.5 | -15.7%
Clc1ccccc1CN(Cc1ccco1)Cc1nnnn1C1CCCC1 | 1.8% | -4.7% | 0.0% | -69.6* | 18.6%
O=C(O)c1ccc(NCc2cccnc2)c([N+](=O)[O-])c1 | -4.6% | -2.6% | -0.8% | -53.4* | ?
CCN1C(=O)N[C@@H](c2cccc(F)c2)C(C(=O)OC)=C1C | 0.1% | . | 2.6% | -39.6* | -3.9%
COC(=O)/C=C1\N/C(=N\c2nc(C)cc(C)n2)N(c2ccccc2)C1=O | -12.1% | -1.1% | -0.3% | -38.1* | -20.8%
COC(=O)/C=C1/N/C(=N\c2nc(C)cc(C)n2)N(c2ccccc2)C1=O | 5.4% | 0.9% | -1.9% | 0.8 | -10.4%
Cc1cc(C(=O)OCc2nnc(-c3ccccc3)o2)c(C)n1-c1ccccc1 | 3.3% | -0.5% | -0.3% | -127.5* | -49.6%
COc1ccc([C@]23Cc4cc(C#N)ccc4C(O2)c2c(c4ccc(OC)cc4oc2=O)O3)cc1 | . | -0.2%[15.4 µM] | . | . | .
COc1cc(CNc2ncnc3c2ncn3[C@H]2CN(Cc3ccccc3)C[C@@H](COC(C)=O)O2)cc(OC)c1OC | . | . | . | -37.7* | .
CCn1cc(/C=N\NC(=O)Cc2ccc([N+](=O)[O-])cc2)c(C)n1 | -0.4% | -4.7% | 3.3% | -38.9* | 9.2%
CCCCc1ccc(NC(=O)Nc2cc(C)nn2C)cc1 | -12.4% | 1.3% | 0.4% | -111.3* | -14.2%
CCCCc1ccc(NC(=O)Nc2cnccn2)cc1 | -11.5% | -0.5% | 1.4% | 0.2 | -6.6%
CN(C)c1ccc(/C=C2/C[N+](C)(C)C/C(=C/c3ccc(N(C)C)cc3)C2=O)cc1 | 16.4µM* | . | ? | -3.2 | -8.1%
CC(C)/C=C1\CC/C(=C\c2ccc(N(C)C)cc2)C1=O | ? | 2.3% | ? | 0.3 | -2.2%
Cc1ccc(C)c(NC(=S)N(CCc2nc3cc(C)c(C)cc3[nH]2)Cc2cccnc2)c1 | -6.0% | 5.1% | 2.6% | -57.7* | 3.2%
COc1ccc(CNC(=O)COC(=O)CCc2c[nH]c3ccccc23)cc1 | 4.1% | -6.4% | 0.0% | -1.5 | 10µM*
O=C(COC(=O)CCc1c[nH]c2ccccc12)NCc1ccccc1 | 13.3% | 0.5% | -0.1% | -2.8 | 4.0%
NC(N)=NS(=O)(=O)c1ccc(NC(=S)NC(=O)c2sc3ccccc3c2Cl)cc1 | 20.6µM* | ? | ? | -1.6 | -11.6%
